Patent US20210275686A1, “BINDER/ACTIVE AGENT CONJUGATES DIRECTED AGAINST CXCR5, HAVING ENZYMATICALLY CLEAVABLE LINKERS AND IMPROVED ACTIVITY PROFILE” (BAYER AKTIENGESELLSCHAFT, priority 2018, published 2021)

Tested on: Caco-2 cells
Assay: Cell permeability flux assay using Caco-2 cells
Assay type: in vitro ADME
Conditions: Caco-2, 2 h

`CC(C)(C)[C@H](c1cc(-c2cc(F)ccc2F)cn1Cc1ccccc1)N(CCCN)C(=O)CO` [Reference Example R1M, N-(3-Aminopropyl)-N-{(IR)-1-[1-benzyl-4-(2,5-difluorophenyl)-IH-pyrrol-2-yl]-2,2-dimethylpropyl}-2-hydroxyacetamide] was tested, and the “Papp (B − A)” value was 21.3 ×10⁻⁶ cm/s.
